The Human Domainome abundance scans (Beltran et al. 2025)
± gives the uncertainty stated by the source.

B1: X-ray repair cross-complementing protein 6, residues 558 to 609; numbered along this chain, P12956 (parent)
chain: EYSEEELKTHISKGTLGKFTVPMLKEACRAYGLKSGLKKQELLEALTKHFQD

Variants of: B1
Test: abundance fitness (aPCA) (normalised: wild type 0, dead -1); higher = more abundant; growth selection in yeast, the domain comes from the species named
Conditions: Homo sapiens

Variant | abundance fitness
EYSEEELKTHISFGTLGKFTVPMLKEACRAYGLKSGLKKQELLEALTKHFQD | -0.293 ± 0.085
EYSEEELKTHISDGTLGKFTVPMLKEACRAYGLKSGLKKQELLEALTKHFQD | -0.36 ± 0.098
EYSEEELKTHISCGTLGKFTVPMLKEACRAYGLKSGLKKQELLEALTKHFQD | -0.026 ± 0.079
EYSEEELKTHISLGTLGKFTVPMLKEACRAYGLKSGLKKQELLEALTKHFQD | -0.17 ± 0.061
EYSEEELKTHISGGTLGKFTVPMLKEACRAYGLKSGLKKQELLEALTKHFQD | -0.251 ± 0.075
EYSEEELKTHESKGTLGKFTVPMLKEACRAYGLKSGLKKQELLEALTKHFQD | -0.995 ± 0.12
EYSEEELKTHYSKGTLGKFTVPMLKEACRAYGLKSGLKKQELLEALTKHFQD | 0.017 ± 0.12
EYSEEELKTHWSKGTLGKFTVPMLKEACRAYGLKSGLKKQELLEALTKHFQD | -0.198 ± 0.068
EYSEEELKTHCSKGTLGKFTVPMLKEACRAYGLKSGLKKQELLEALTKHFQD | -0.267 ± 0.06
EYSEEELKTHPSKGTLGKFTVPMLKEACRAYGLKSGLKKQELLEALTKHFQD | -1.16 ± 0.28
EYSEEELKTHDSKGTLGKFTVPMLKEACRAYGLKSGLKKQELLEALTKHFQD | -1.03 ± 0.2
EYSEEELKTHLSKGTLGKFTVPMLKEACRAYGLKSGLKKQELLEALTKHFQD | -0.135 ± 0.045
EYSEEELKTHSSKGTLGKFTVPMLKEACRAYGLKSGLKKQELLEALTKHFQD | -0.694 ± 0.076
EYSEEELKTHMSKGTLGKFTVPMLKEACRAYGLKSGLKKQELLEALTKHFQD | -0.289 ± 0.097
EYSEEELKTHKSKGTLGKFTVPMLKEACRAYGLKSGLKKQELLEALTKHFQD | -0.764 ± 0.2
EYSEEELKTHASKGTLGKFTVPMLKEACRAYGLKSGLKKQELLEALTKHFQD | -0.311 ± 0.055
EYSEEELKTHVSKGTLGKFTVPMLKEACRAYGLKSGLKKQELLEALTKHFQD | -0.143 ± 0.069
EYSEEELKTHHSKGTLGKFTVPMLKEACRAYGLKSGLKKQELLEALTKHFQD | -0.663 ± 0.24
EYSEEELKTHTSKGTLGKFTVPMLKEACRAYGLKSGLKKQELLEALTKHFQD | -0.478 ± 0.087
EYSEEELKTHNSKGTLGKFTVPMLKEACRAYGLKSGLKKQELLEALTKHFQD | -0.377 ± 0.14
EYSEEELKTHRSKGTLGKFTVPMLKEACRAYGLKSGLKKQELLEALTKHFQD | -0.751 ± 0.056
EYSEEELKTHQSKGTLGKFTVPMLKEACRAYGLKSGLKKQELLEALTKHFQD | -0.901 ± 0.2
EYSEEVLKTHISKGTLGKFTVPMLKEACRAYGLKSGLKKQELLEALTKHFQD | 0.051 ± 0.032
EYSEEWLKTHISKGTLGKFTVPMLKEACRAYGLKSGLKKQELLEALTKHFQD | -0.081 ± 0.039
EYSEESLKTHISKGTLGKFTVPMLKEACRAYGLKSGLKKQELLEALTKHFQD | 0.025 ± 0.033

Variant | abundance fitness
EYSEEEVKTHISKGTLGKFTVPMLKEACRAYGLKSGLKKQELLEALTKHFQD | -0.533 ± 0.26
EYSEEETKTHISKGTLGKFTVPMLKEACRAYGLKSGLKKQELLEALTKHFQD | -0.192 ± 0.12
EYSEEESKTHISKGTLGKFTVPMLKEACRAYGLKSGLKKQELLEALTKHFQD | -0.677 ± 0.32
EYSEEECKTHISKGTLGKFTVPMLKEACRAYGLKSGLKKQELLEALTKHFQD | -1.08 ± 0.38
EYSEEEGKTHISKGTLGKFTVPMLKEACRAYGLKSGLKKQELLEALTKHFQD | -0.956 ± 0.41
EYSEEEHKTHISKGTLGKFTVPMLKEACRAYGLKSGLKKQELLEALTKHFQD | -0.665 ± 0.34
EYSEEEMKTHISKGTLGKFTVPMLKEACRAYGLKSGLKKQELLEALTKHFQD | -0.182 ± 0.48
EYSEEEAKTHISKGTLGKFTVPMLKEACRAYGLKSGLKKQELLEALTKHFQD | -0.253 ± 0.15
EYSEEEPKTHISKGTLGKFTVPMLKEACRAYGLKSGLKKQELLEALTKHFQD | -0.729 ± 0.1
EYSEEELKTRISKGTLGKFTVPMLKEACRAYGLKSGLKKQELLEALTKHFQD | -0.216 ± 0.065
EYSEEELKTIISKGTLGKFTVPMLKEACRAYGLKSGLKKQELLEALTKHFQD | -0.246 ± 0.1
EYSEEELKTFISKGTLGKFTVPMLKEACRAYGLKSGLKKQELLEALTKHFQD | -0.12 ± 0.091
EYSEEELKTEISKGTLGKFTVPMLKEACRAYGLKSGLKKQELLEALTKHFQD | -0.397 ± 0.06
EYSEEELKTDISKGTLGKFTVPMLKEACRAYGLKSGLKKQELLEALTKHFQD | -0.628 ± 0.098
EYSEEELKTPISKGTLGKFTVPMLKEACRAYGLKSGLKKQELLEALTKHFQD | -0.783 ± 0.078
EYSEEELKTKISKGTLGKFTVPMLKEACRAYGLKSGLKKQELLEALTKHFQD | -0.719 ± 0.12
EYSEEELKTYISKGTLGKFTVPMLKEACRAYGLKSGLKKQELLEALTKHFQD | -0.155 ± 0.051
EYSEEELKTGISKGTLGKFTVPMLKEACRAYGLKSGLKKQELLEALTKHFQD | -0.529 ± 0.055
EYSEEELKTWISKGTLGKFTVPMLKEACRAYGLKSGLKKQELLEALTKHFQD | -0.4 ± 0.051
EYSEEELKTAISKGTLGKFTVPMLKEACRAYGLKSGLKKQELLEALTKHFQD | -0.142 ± 0.041
EYSEEELKTSISKGTLGKFTVPMLKEACRAYGLKSGLKKQELLEALTKHFQD | -0.211 ± 0.059
EYSEEELKTLISKGTLGKFTVPMLKEACRAYGLKSGLKKQELLEALTKHFQD | -0.557 ± 0.079
EYSEEELKTMISKGTLGKFTVPMLKEACRAYGLKSGLKKQELLEALTKHFQD | -0.076 ± 0.094
EYSEEELKTVISKGTLGKFTVPMLKEACRAYGLKSGLKKQELLEALTKHFQD | -0.247 ± 0.036
EYSEEELKTNISKGTLGKFTVPMLKEACRAYGLKSGLKKQELLEALTKHFQD | -0.418 ± 0.095
